{"sequences": {"note": "Protein sequences, listed by entry. Tags and fused reporters are not part of them. Lines headed by an entry give the natural chain unless they say otherwise; changes in a name come on top.", "UniProt Q9UNA4": "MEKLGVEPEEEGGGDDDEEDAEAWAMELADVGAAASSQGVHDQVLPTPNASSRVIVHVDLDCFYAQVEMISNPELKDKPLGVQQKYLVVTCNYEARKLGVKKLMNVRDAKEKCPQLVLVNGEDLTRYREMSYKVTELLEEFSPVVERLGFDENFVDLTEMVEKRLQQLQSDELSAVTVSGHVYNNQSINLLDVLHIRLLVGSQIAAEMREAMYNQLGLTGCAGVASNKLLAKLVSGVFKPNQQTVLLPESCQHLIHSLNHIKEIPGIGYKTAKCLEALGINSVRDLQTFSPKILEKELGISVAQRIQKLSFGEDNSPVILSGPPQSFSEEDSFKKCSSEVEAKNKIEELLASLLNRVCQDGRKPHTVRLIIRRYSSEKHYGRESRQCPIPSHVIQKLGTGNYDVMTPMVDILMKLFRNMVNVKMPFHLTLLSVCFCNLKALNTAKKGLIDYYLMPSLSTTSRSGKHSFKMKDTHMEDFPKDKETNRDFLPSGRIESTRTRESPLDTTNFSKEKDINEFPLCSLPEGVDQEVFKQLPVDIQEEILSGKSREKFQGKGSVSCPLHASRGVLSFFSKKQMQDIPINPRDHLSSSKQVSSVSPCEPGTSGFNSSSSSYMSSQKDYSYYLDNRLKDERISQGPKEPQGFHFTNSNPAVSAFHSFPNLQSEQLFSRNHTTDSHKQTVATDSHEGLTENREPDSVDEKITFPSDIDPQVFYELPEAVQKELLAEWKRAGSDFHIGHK"}, "source": "PubChem BioAssay AID588590", "about": "(National Center for Advancing Translational Sciences (NCATS), 2011)", "note": "The list shows a part of the results, in another mix than the full data. Records with an inconclusive call do not appear. Calls of active or inactive are those of the source. The call rests on the fitted dose curve; in most records, active means well fitted inhibition curve with a large enough effect; inconclusive means small, poorly fitted or top-dose-only effect, or another doubt; inactive means no such curve, though single readings can be large or run the other way. Potency means the concentration at half of the fitted maximal effect."}
{"target": "DNA polymerase iota (Homo sapiens) (UniProt Q9UNA4)", "assay": "qHTS for Inhibitors of Polymerase Iota", "conditions": "Pol iota fluorescent replication assay, 10 min; series mostly up to 115 µM; activity, negative = inhibition: at the top concentration"}
{"compound": "Cc1cnc(C(=O)NCCc2ccc(S(=O)(=O)NC(=O)NC3CCCCC3)cc2)cn1", "activity, negative = inhibition": "inactive: 11.6%"}
{"compound": "CC1(C)N([O-])c2cc([N+](=O)[O-])ccc2[N+]1=O", "Potency": "active: 7.94 µM"}
{"compound": "N=C(N)c1ccc(OCCCCCOc2ccc(C(=N)N)cc2)cc1", "note": "(tested in a mixture with another compound)", "Potency": "active: 6.31 µM"}
{"compound": "N=C(N)c1ccc(OCCCCCOc2ccc(C(=N)N)cc2)cc1", "Potency": "active: 17.8 µM"}
{"compound": "CC(C)(C(=O)O)c1ccc(C(O)CCCN2CCC(C(O)(c3ccccc3)c3ccccc3)CC2)cc1", "note": "(stereo not given)", "Potency": "inactive"}
